Data taken from publication PMC6663879, “Biochemical and structural investigations clarify the substrate selectivity of the 2-oxoglutarate oxygenase JMJD6” (The Journal of Biological Chemistry, 2019).
Several values for one entry are separate records, joined by “and”; a condition that tells them apart may be missing. Equal entries are not always repeated.

Target: full-length JMJD6 (JmjC domain-containing protein 6), residues 1–403 (human) (UniProt Q6NYC1)
Assay: native MS; nondenaturing MS of full-length JMJD6; conditions not shown (Fig. S27)

stoichiometry N: 2 and 3 and 4
Substance: full-length JMJD6 (JmjC domain-containing protein 6), residues 1–403 (from UniProt Q6NYC1 1-403) (enzyme)
